Assay results from patent US7049327B2, “Substituted dimethyl-[1-(1-phenyl-cyclohexyl)-piperidin-3-ylmethyl]-amines and the use of the same as analgesics” (dated 2006).

Tests used:
[1] = test system: phenylquinone-induced writhing reactions in mice; experiment: Phenylquinone-induced writhing test in mice; settings: male mice, 10 min before phenylquinone i.p., writhing counted 5 to 20 min after phenylquinone
[2] = test system: formalin-induced nociceptive reaction (licking and biting of the paw) in mice; experiment: Formalin test in mice, second (late) phase; settings: male NMRI mice, 5 min before formalin (20 μl, 1% s.c.), 21st to 24th minute

Compound | % inhibition of the writhing reactions 10 mg/kg i.v. [1] | % inhibition relative to control 10 mg/kg i.v. [2]
COc1cccc(C2(O)CCN(C3(c4ccccc4)CCCCC3)CC2CN(C)C)c1.Cl.Cl (centres unmarked) | 54% | 55%
CN(C)CC1CN(C2(c3ccccc3)CCCCC2)CCC1(C)O.Cl.Cl (centres unmarked) | 33% | –
CN(C)CC1CN(C2(c3ccccc3)CCCCC2)CCC1(O)Cc1ccccc1.Cl.Cl (centres unmarked) | 35% | –
CN(C)CC1CN(C2(c3ccccc3)CCCCC2)CCC1(O)c1cccc(Cl)c1.Cl.Cl (centres unmarked) | 40% | –
CN(C)CC1CN(C2(c3ccccc3)CCCCC2)CCC1(O)c1cccc(O)c1.Cl.Cl (centres unmarked) | 73% | 59%
CCCCCCCCC1(O)CCN(C2(c3ccccc3)CCCCC2)CC1CN(C)C.Cl.Cl (centres unmarked) | 31% | –
